Our source for the IC50 values is patent US20240010655A1, “DIHYDROIMIDAZO PYRIMIDO PYRIMIDINONE COMPOUND” (priority 2019, published 2024).

By UniProt entry, the sequences of proteins in these tests, tags left out.
UniProt P30291, whole entry: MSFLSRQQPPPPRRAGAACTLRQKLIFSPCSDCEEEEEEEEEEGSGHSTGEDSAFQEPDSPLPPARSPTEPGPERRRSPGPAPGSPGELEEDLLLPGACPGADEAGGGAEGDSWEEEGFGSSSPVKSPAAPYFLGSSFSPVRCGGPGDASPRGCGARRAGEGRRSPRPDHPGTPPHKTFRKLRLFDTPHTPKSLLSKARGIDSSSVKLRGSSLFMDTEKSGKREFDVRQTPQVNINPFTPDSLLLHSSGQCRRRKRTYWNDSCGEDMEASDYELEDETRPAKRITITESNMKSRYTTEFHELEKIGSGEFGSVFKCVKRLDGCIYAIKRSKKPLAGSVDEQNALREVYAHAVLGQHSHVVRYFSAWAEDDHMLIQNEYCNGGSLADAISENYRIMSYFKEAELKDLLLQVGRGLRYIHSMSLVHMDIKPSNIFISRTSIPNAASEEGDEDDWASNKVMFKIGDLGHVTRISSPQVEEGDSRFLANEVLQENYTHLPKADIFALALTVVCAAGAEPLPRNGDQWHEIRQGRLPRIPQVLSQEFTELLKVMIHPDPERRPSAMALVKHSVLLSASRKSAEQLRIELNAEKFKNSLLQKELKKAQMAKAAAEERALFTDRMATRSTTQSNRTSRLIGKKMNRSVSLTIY

One experiment addresses Wee1 (h) (Homo sapiens, UniProt P30291). The experiment can be described thus: Wee1(h) kinase activity experiment ([γ-33P]-ATP, filtermat, scintillation counting). To be noted: read-out: IC50, inhibitory effect on Wee1 kinase activity; 10 μM ATP, 40 minutes at room temperature. It is filed as biochemical. As to the method:
Determination of the Inhibitory Effect of Compounds on Wee1 Kinase Using Wee1(h) Kinase Activity Experiment
Wee1 (h) is incubated with 20 mM Tris/HCl pH 8.5, 0.2 mM EDTA, 500 μM […], 10 mM MgAcetate and 10 μM [γ-^33P]-ATP. Then 50 times the concentration of the testing compound in 100% DMSO was added until the final concentration was 10 μM, then mixed, and diluted to 10 concentrations in successive series according to the ratio of 1:3 and 1:10 respectively (the last concentration was DMSO negative control): 10 μM, 3 μM, 1 μM, 0.3 μM, 0.1 μM, 0.03 μM, 0.01 μM, 0.003 μM, 0.001 μM, 0 μM. The reaction is initiated by the addition of the Mg/ATP mix. After incubation for 40 minutes at room temperature, the reaction is stopped by the addition of phosphoric acid to a concentration of 0.5%. 10 μL of the reaction liquor is then spotted onto a P30 filtermat and washed four times in 0.425% phosphoric acid and once in methanol prior to drying and scintillation counting. Each compound sample is duplicated in duplicate. The negative control was the components except of Wee1 enzyme, and the positive control was the components of adding 30% phosphoric acid to terminate the reaction. Table 1 summarizes the inhibitory effects of compounds on Wee1 kinase activity (IC50).

The test system of the next experiment is LoVo cell. The experiment in a line: Inhibition of proliferation of LoVo cell, CCK-8 method. To be noted: read-out: IC50, inhibitory effect on the proliferation of LoVo cell; CCK-8, 3 days. As to the method: Determination of the Inhibitory Effect of Compounds on the Proliferation of LoVo Cell Using CCK-8 Method
(§1) The cells were digested by trypsinase and centrifuged at 800 rpm for 5 minutes, the supernatant was discarded, and the residual was resuspended with fresh medium and counted. The cells were seeded into 96-well cell culture plate with a density of 6000 cells per well and incubated overnight in a 5% C02 incubator at 37° C. The stock solutions of test compounds were serially diluted to 8 concentrations by DMSO at the ratios of 1:3 and 1:10, respectively. The final concentration of compound was: 10 μM, 3.3 μM, 1 μM, 0.33 μM, 0.1 μM, 0.033 μM, 0.01 μM and 0 μM. 5 μL diluent of each concentration was added to 120 μL of medium (25 times diluted) and mixed by shaking. The overnight cell plates were taken and the culture medium was removed, 195 μL of fresh medium was added to each well, and 5 μL of diluted medium containing the corresponding concentration of the test compound was added respectively (the final concentration of DMSO is 1‰), and the culture plate was then placed in a 5% CO2 incubator at 37° C. for 3 days. After removing the original solution, 90 μL of fresh serum-free 1640 medium was added, then 10 μL of CCK-8 reagent was added to each well and continued incubation for 2 hours. The 96-well plates were placed in a multi-function reader to read the absorbance at the wavelength of 450/650 nm. Cell viability (%)=(ODcompound−ODbackground)/(ODDMSO−ODbackground)×100. GraphPad Prism 5.0 was used to analyze the data. The inhibitory activity of compounds on cell proliferation was plotted based on cell viability and the logarithm of compound concentration. The IC50 value was fitted by a sigmoidal dose response curve equation Y=100/(1+10^(Log C−Log IC50)), wherein C was the concentration of compound.
Table 2 summarizes the inhibitory effect data (IC50) of compounds on the proliferation of LoVo cell

The test system of the next experiment is NCI-H1299 cell. The experiment can be described thus: Inhibition of proliferation of NCI-H1299 cell, CCK-8 method. To be noted: read-out: IC50, inhibitory effect on the proliferation of NCI-H1299 cell; CCK-8, 3 days. How it is done: Determination of the Inhibitory Effect of Compounds on the Proliferation of NCI-H1299 Cell Using CCK-8 Method
as §1, with “1000” for “6000”, “CO2” for “C02”
Table 3 summarizes the inhibitory effect data (IC50) of compounds on the proliferation of NCI-H1299 cell.
For orientation: Formazan colour is commonly taken as a measure of viable cells.

Turning to `C[C@@H]1CN(c2ccc(Nc3ncc4c(n3)N3CCN=C3N(c3c(Cl)cccc3Cl)C4=O)cc2F)C[C@H](C)N1C`, the IC50 came out at 48 nM on Wee1 (h), 557 nM in the experiment on LoVo cell and 398 nM with NCI-H1299 cell.

In the case of `C[C@@H]1CN(c2ccc(Nc3ncc4c(n3)N3CCN=C3N(c3c(Cl)cccc3Cl)C4=O)cc2)C[C@H](C)N1C`, the IC50 is 30 nM on Wee1 (h), 421 nM with LoVo cell and 315 nM in the experiment on NCI-H1299 cell.

On to `Cc1cc(Nc2ncc3c(n2)N2CCN=C2N(c2c(Cl)cccc2Cl)C3=O)ccc1N1C[C@@H](C)N(C)[C@@H](C)C1`, for which the IC50 is 23 nM on Wee1 (h), 166 nM with LoVo cell and 122 nM with NCI-H1299 cell.
